“Also recorded” adds a separate entry of the source.
Conditions: 10 mg pCPP:SA wafers loaded 0.5%, intracranial; days 1, 6, 12; listed as MCW-YB

For `C=C1/C(=C\C=C2/CCCC3(C)[C@@H]([C@H](C)OCCCC(O)(CC)CC)CC[C@@H]23)CC(O)C[C@H]1CO` (stereo partly shown) [MCW-005-YB], the “blood calcium compared to placebo wafers” value was “no weight loss or rise in serum ionized calcium; also recorded: no significant rise in blood calcium”.

Source: patent US20080260834A1, “VITAMIN D3 ANALOG LOADED POLYMER FORMULATIONS FOR CANCER AND NEURODEGENERATIVE DISORDERS” (priority 2002, published 2008)
